Source: IntAct's records for PubMed 30126976

B1: Proline-rich protein 5 (Homo sapiens), P85299 (parent)
chain: MRTLRRLKFMSSPSLSDLGKREPAAAADERGTQQRRACANATWNSIHNGVIAVFQRKGLPDQELFSLNEGVRQLLKTELGSFFTEYLQNQLLTKGMVILRDKIRFYEGQKLLDSLAETWDFFFSDVLPMLQAIFYPVQGKEPSVRQLALLHFRNAITLSVKLEDALARAHARVPPAIVQMLLVLQGVHESRGVTEDYLRLETLVQKVVSPYLGTYGLHSSEGPFTHSCILEKRLLRRSRSGDVLAKNPVVRSKSYNTPLLNPVQEHEAEGAAAGGTSIRRHSVSEMTSCPEPQGFSDPPGQGPTGTFRSSPAPHSGPCPSRLYPTTQPPEQGLDPTRSSLPRSSPENLVDQILESVDSDSEGIFIDFGRGRGSGMSDLEGSGGRQSVV
B2: COP9 signalosome complex subunit 1 (Homo sapiens), Q13098 (parent)
chain: MPLPVQVFNLQGAVEPMQIDVDPQEDPQNAPDVNYVVENPSLDLEQYAASYSGLMRIERLQFIADHCPTLRVEALKMALSFVQRTFNVDMYEEIHRKLSEATRSSLRELQNAPDAIPESGVEPPALDTAWVEATRKKALLKLEKLDTDLKNYKGNSIKESIRRGHDDLGDHYLDCGDLSNALKCYSRARDYCTSAKHVINMCLNVIKVSVYLQNWSHVLSYVSKAESTPEIAEQRGERDSQTQAILTKLKCAAGLAELAARKYKQAAKCLLLASFDHCDFPELLSPSNVAIYGGLCALATFDRQELQRNVISSSSFKLFLELEPQVRDIIFKFYESKYASCLKMLDEMKDNLLLDMYLAPHVRTLYTQIRNRALIQYFSPYVSADMHRMAAAFNTTVAALEDELTQLILEGLISARVDSHSKILYARDVDQRSTTFEKSLLMGKEFQRRAKAMMLRAAVLRNQIHVKSPPREGSQGELTPANSQSRMSTNM

Variants of: B1
Settings: with dlg1_human DLG1, Q12959

| effect of a mutation on the interaction | Variant |
| --- | --- |
| decreasing interaction strength | MRTLRRLKFMSSPSLSDLGKREPAAAADERGTQQRRACANATWNSIHNGVIAVFQRKGLPDQELFSLNEGVRQLLKTELGSFFTEYLQNQLLTKGMVILRDKIRFYEGQKLLDSLAETWDFFFSDVLPMLQAIFYPVQGKEPSVRQLALLHFRNAITLSVKLEDALARAHARVPPAIVQMLLVLQGVHESRGVTEDYLRLETLVQKVVSPYLGTYGLHSSEGPFTHSCILEKRLLRRSRSGDVLAKNPVVRSKSYNTPLLNPVQEHEAEGAAAGGTSIRRHSVSEMTSCPEPQGFSDPPGQGPTGTFRSSPAPHSGPCPSRLYPTTQPPEQGLDPTRSSLPRSSPENLVDQILESVDSDSEGIFIDFGRGRGSGMSDLEGEGGRQSVV [S381E] |

Variants of: B2
Settings: with scrib_human SCRIB

| effect of a mutation on the interaction | Variant |
| --- | --- |
| causing an interaction | MPLPVQVFNLQGAVEPMQIDVDPQEDPQNAPDVNYVVENPSLDLEQYAASYSGLMRIERLQFIADHCPTLRVEALKMALSFVQRTFNVDMYEEIHRKLSEATRSSLRELQNAPDAIPESGVEPPALDTAWVEATRKKALLKLEKLDTDLKNYKGNSIKESIRRGHDDLGDHYLDCGDLSNALKCYSRARDYCTSAKHVINMCLNVIKVSVYLQNWSHVLSYVSKAESTPEIAEQRGERDSQTQAILTKLKCAAGLAELAARKYKQAAKCLLLASFDHCDFPELLSPSNVAIYGGLCALATFDRQELQRNVISSSSFKLFLELEPQVRDIIFKFYESKYASCLKMLDEMKDNLLLDMYLAPHVRTLYTQIRNRALIQYFSPYVSADMHRMAAAFNTTVAALEDELTQLILEGLISARVDSHSKILYARDVDQRSTTFEKSLLMGKEFQRRAKAMMLRAAVLRNQIHVKSPPREGSQGELTPANSQSRMETNM [S488E] |
